# Binding of CDR-mutated scFvs to a peptide of the spike HR2 region

Source: Engelhart et al. 2022 (doi:10.1038/s41597-022-01779-4), MIT Lincoln Laboratory and A-Alpha Bio; data file from the FLAb repository.

The target is the same throughout: PDVDLGDISGINAS, from the HR2 region of SARS-CoV-2 spike.

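The starting antibody came from a phage panning campaign against this peptide. In library AAYL51, one, two or three CDR residues were substituted; doubles and triples were drawn at random. In AlphaSeq, yeast of one mating type display the scFv and yeast of the other type display the target. Mating (16 h, 30 °C) was followed by selection of diploids and sequencing of their barcodes. The ratio of observed to expected reads was calibrated, replicate by replicate, on BCL2-family standards whose Kd was known from biolayer interferometry. Mating was done three times.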

Each scFv is VL, the linker GGGGSGGGGSGGGGS, VH, as in the parent Ab-91, and differs from it in the CDRs of the heavy chain only.
VL: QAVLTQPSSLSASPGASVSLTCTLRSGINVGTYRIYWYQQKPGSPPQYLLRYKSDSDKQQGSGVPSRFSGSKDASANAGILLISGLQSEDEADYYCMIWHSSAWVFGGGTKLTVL
VH: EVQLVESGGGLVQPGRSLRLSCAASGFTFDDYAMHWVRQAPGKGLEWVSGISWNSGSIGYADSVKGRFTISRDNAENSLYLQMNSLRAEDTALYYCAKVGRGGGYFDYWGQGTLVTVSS

Each variant is given by its three heavy chain CDRs, as the data file delimits them; those of the parent are GFTFDDYAMH, GISWNSGSIGYADSVK, VGRGGGYFDY.
The Kd shown is the geometric mean over detected replicates; a lower Kd is a better binder.
A pair that was not seen in any replicate is written "nd"; this usually means weak binding, but a binder can also be missed.
Nonspecific signal, from three strains lacking the peptide, appeared in 21% of pairings of library AAYL51, centred on 34 µM (5% of these signals below 1.8 µM); values are not corrected for it. Also given: how often the same scFv was detected with the empty control strains.

| # | CDR-H1 | CDR-H2 | CDR-H3 | Kd (apparent) | replicates with signal | control signals |
|---|---|---|---|---|---|---|
| 1 | GFTFDDYAMH | GISWNSGSGGYADSVK | VGPGGGYFDY | 1.8 µM | 1/3 | 1/9 |
| 2 | GFTFDDYAMR | GISQNRGSIGYADSVK | VGRGGGYFDY | 490 µM | 1/3 | 0/9 |
| 3 | GMTFDDYDMH | GISWNSGSIGYADSVK | VGFGGGYFDY | 43 µM | 1/3 | 3/9 |
| 4 | GFTFDDYAMH | DIIWNSGSIGYADSVK | VGLGGGYFDY | nd | 0/3 | 1/9 |
| 5 | GFTFDDYAMH | GISWNSGSIGYWDSRK | VGRGGGYFDD | 120 µM | 1/3 | 3/9 |
| 6 | CFTFDDYAMH | GISSNSGIIGYADSVK | VGRGGGYFDY | 110 nM | 1/3 | 0/9 |
| 7 | GFTFDDYAYH | GISWNSGSIGYADSVK | VGRGFEYFDY | nd | 0/3 | 1/9 |
| 8 | GFTFDDYAMH | GISWNSGSIGYADGVP | VGRGEGYFDY | 96 µM | 1/3 | 3/9 |
| 9 | GFTFHDYAMH | GISWNSGSIGYADSVK | VGFKGGYFDY | 140 nM | 3/3 | 3/9 |
| 10 | GFTFDDSAMH | GILWNSGSIGYVDSVK | VGRGGGYFDY | 43 µM | 3/3 | 6/9 |
| 11 | GFTFYDYAMA | GINWNSGSIGYADSVK | VGRGGGYFDY | nd | 0/3 | 0/9 |
| 12 | GPTFDDYAMH | GISWNSGSFGYADSYK | VGRGGGYFDY | nd | 0/3 | 0/9 |
| 13 | GFTFDDYAMR | GISWNSGDIGYAQSVK | VGRGGGYFDY | nd | 0/3 | 0/9 |
| 14 | GFSFDDYAMH | GISWKSGSIGYADSVW | VGRGGGYFDY | nd | 0/3 | 2/9 |
| 15 | GFTFYDIAMH | GISWNSGSIGYADSVP | VGRGGGYFDY | nd | 0/3 | 4/9 |
| 16 | GFTFDDYAGH | GISWNSVSIGYADSVK | VGRGGGYFDY | 84 µM | 2/3 | 6/9 |
| 17 | GFTFKDYALH | GVSWNSGSIGYADSVK | VGRGGGYFDY | 14 µM | 3/3 | 4/9 |
| 18 | GFTFDDYAMH | GISWNSGSIKYADSVK | VGRGGGCFMY | nd | 0/3 | 0/9 |
| 19 | GFTFDDMAMH | GISWNSGSIGYADSVK | VLRGSGYFDY | 39 µM | 1/3 | 3/9 |
| 20 | GFTFDDYAMH | GIFWNSGSIGYADSVT | VGRGLGYFDY | 190 µM | 2/3 | 4/9 |
| 21 | GFTRDDYAMQ | GISWNSGSIGYADSHK | VGRGGGYFDY | 12 µM | 2/3 | 2/9 |
| 22 | GFTFDDYAMH | GISWFSVSIGYADSVK | VGRGNGYFDY | nd | 0/3 | 0/9 |
| 23 | GFTFDDYMML | GISQNSGSIGYADSVK | VGRGGGYFDY | 1.4 µM | 2/3 | 3/9 |
| 24 | GFTFDDYAMH | GISWNGGSINYADSVK | VGRGGGYFDY | nd | 0/3 | 0/9 |
| 25 | GFTYDDYAMH | GISWNDGSIGYADSVK | VQRGGGYFDY | 8.1 µM | 1/3 | 1/9 |
| 26 | GFTFDDYAMH | GINWNSGSIGYADKVK | VGRGGYYFDY | nd | 0/3 | 0/9 |
| 27 | GFTFWDTAMH | GISWNSGSIGYADSVK | VGSGGGYFDY | 220 µM | 1/3 | 0/9 |
| 28 | GFTFDDYPMH | GISWNSGSIGYADSVK | VGRDGGYFDM | 1.1 µM | 1/3 | 0/9 |
| 29 | GFTFDDYAMH | AISWNSGSIMYADSQK | VGRGGGYFDY | nd | 0/3 | 0/9 |
| 30 | GFTFDIYAMH | GISLNSGSIGYARSVK | VGRGGGYFDY | 1.6 µM | 3/3 | 2/9 |

Continued, with the values leading:

| # | Kd (apparent) | replicates with signal | control signals | CDR-H1 | CDR-H2 | CDR-H3 |
|---|---|---|---|---|---|---|
| 31 | nd | 0/3 | 0/9 | GFTFDDYTMH | GISWNSTSIGYADSVK | VGRGGGYFDS |
| 32 | 4.2 µM | 3/3 | 4/9 | GSTFDDYAMH | GISWNSGSIGYAQSVK | VGRGGTYFDY |
| 33 | nd | 0/3 | 2/9 | GFTFDDLAMH | LISWNSGSIGYYDSVK | VGRGGGYFDY |
| 34 | nd | 0/3 | 1/9 | GFTFDGYAMH | GISWNSGSIGYADRVK | VGRGEGYFDY |
| 35 | nd | 0/3 | 2/9 | GFHFDDYAMG | GMSWNSGSIGYADSVK | VGRGGGYFDY |
| 36 | 5.1 µM | 1/3 | 1/9 | GFTFDIYAMH | GISWNSGSIYYADSVK | VGRGGMYFDY |
| 37 | 120 µM | 1/3 | 5/9 | GFTFDDYAMV | GISWNSGSIGKDDSVK | VGRGGGYFDY |
| 38 | nd | 0/3 | 1/9 | GFTFDDYAMH | GISWASGSNGYADSVK | VGRGQGYFDY |
| 39 | nd | 0/3 | 2/9 | GFTFDDYPMH | GFSWNSGSIGYADSVK | VGRGGGPFDY |
| 40 | 100 µM | 2/3 | 3/9 | GFTFDDYAMS | GISWNSWSIAYADSVK | VGRGGGYFDY |
| 41 | nd | 0/3 | 0/9 | GFTFDDYAMH | GIDWNSGSIGPADSVK | VGRGGGYFDY |
| 42 | 170 µM | 1/3 | 3/9 | TFTFDDYAMH | GISWNSGSIGYPDSVK | VGMGGGYFDY |
| 43 | nd | 0/3 | 0/9 | GFTFDDYAMH | GISWNQGSIGYYDSVP | VGRGGGYFDY |
| 44 | nd | 0/3 | 0/9 | GFTFDDYAMH | GISWNIGSIGYAWSVK | VGRGGFYFDY |
| 45 | 600 nM | 3/3 | 4/9 | GFTFDDYAMH | GISTNSGSIGYAVSVK | VGRGGGYFDW |
| 46 | 7.6 µM | 2/3 | 4/9 | GFTGDDYAMH | GISGNSGSIGYADSVK | MGRGGGYFDY |
| 47 | 290 µM | 2/3 | 2/9 | GFTFDDYAMH | GISWNSGSIGYADSVG | VGRGGKYFEY |
| 48 | nd | 0/3 | 0/9 | GFTFDDYAMH | GISWNPGSIGYANSVK | VGRGGGYFDH |
| 49 | 17 µM | 1/3 | 6/9 | GFTFDHYAMH | QIAWNSGSIGYADSVK | VGRGGGYFDY |
| 50 | nd | 0/3 | 0/9 | GFTKDDYAMH | GISWNSGSIGYADSVK | VKRGGGYFDP |
| 51 | 29 µM | 2/3 | 2/9 | GFTFDDYAMH | GISWNSGPIGYAPSVA | VGRGGGYFDY |
| 52 | nd | 0/3 | 1/9 | GTTFDDYAMF | GISWNYGSIGYADSVK | VGRGGGYFDY |
| 53 | 150 µM | 1/3 | 2/9 | GFEFDDSAMT | GISWNSGSIGYADSVK | VGRGGGYFDY |
| 54 | 96 µM | 2/3 | 4/9 | GFTFDDYAMH | GISWNSQSIGYADSVK | FGRHGGYFDY |
| 55 | 2.9 µM | 3/3 | 5/9 | GFTFDDYAAH | GISWNSGSIGYADSVK | VGTGGGYFDY |
| 56 | 120 µM | 1/3 | 2/9 | GFTFDDYAML | GISWNSGSIGYADSVE | GGRGGGYFDY |
| 57 | 1.6 µM | 3/3 | 5/9 | GFTFDDYAMH | GISWNSGSIGYACSVK | VGLGGGYQDY |
| 58 | 120 µM | 3/3 | 5/9 | GFTFDDYAMV | GISWNSGSIGMADSVK | VGRGGGYFDY |
| 59 | 41 nM | 3/3 | 1/9 | GFFFKDYAMH | GISWNSGSIGYADSVK | VGRGGGYQDY |
| 60 | nd | 0/3 | 0/9 | GFTFDDYAMH | GIGWNSGSIGYATSVP | VGRGGGYFDY |

Picked from the list: the 5 lowest averages where every replicate gave a value.

{"CDR-H1": "GFFFKDYAMH", "CDR-H2": "GISWNSGSIGYADSVK", "CDR-H3": "VGRGGGYQDY", "Kd (apparent)": "41 nM", "replicates with signal": "3/3", "control signals": "1/9"}
{"CDR-H1": "GFTFHDYAMH", "CDR-H2": "GISWNSGSIGYADSVK", "CDR-H3": "VGFKGGYFDY", "Kd (apparent)": "140 nM", "replicates with signal": "3/3", "control signals": "3/9"}
{"CDR-H1": "GFTFDDYAMH", "CDR-H2": "GISTNSGSIGYAVSVK", "CDR-H3": "VGRGGGYFDW", "Kd (apparent)": "600 nM", "replicates with signal": "3/3", "control signals": "4/9"}
{"CDR-H1": "GFTFDDYAMH", "CDR-H2": "GISWNSGSIGYACSVK", "CDR-H3": "VGLGGGYQDY", "Kd (apparent)": "1.6 µM", "replicates with signal": "3/3", "control signals": "5/9"}
{"CDR-H1": "GFTFDIYAMH", "CDR-H2": "GISLNSGSIGYARSVK", "CDR-H3": "VGRGGGYFDY", "Kd (apparent)": "1.6 µM", "replicates with signal": "3/3", "control signals": "2/9"}